These results are taken from patent WO1994029351A2.

pKd: −log10 of the molar value.

Broadly, the pKd is the Kd on a negative log10 scale, so that one unit is a factor of ten. Read a high pKd as a small Kd.

For assay [1], the target named is chimeric L243 human lgG4 (human) [IgG part: P01861]. Briefly: FITC C1q on antibody-coated JY cells, FACS; equilibrium dissociation constant after Krause et al.
In assay [2] the target is FcγRIII on human peripheral blood mononuclear effector cells (human) (UniProt P08637). As to the kind of experiment: cell-based or functional assay.

Consider “Purified human C1q (Sigma UK) (from UniProt P02745 23-245; P02746 28-253; P02747 29-245)”, for which the pKd in assay [1] was 6.92. “chimeric L243 human lgG1 wild type (from UniProt P01857 1-330; P01834 1-107) (antibody)”: the ng/ml antibody necessary for half maximal cell killing in ADCC in assay [2] worked out at 5 ng/mL.
